Bioassay records as filed in PubChem.
An excerpt weighted towards active compounds, which were near 1.3% of everything screened.
LGR2 inh = Drosophila LGR2 receptor signaling inhibition | HEK293 LGR2, CRE-luciferase, bursicon-stimulated, 4 h | inhibition, % at 9.99 µM | AID 720647 | 0.35% of 380,000 active;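 active means drop in luminescence signal, shown as inhibition above about 50% in the replicate tests, limit read from the data, passing the limit was not always enough; inconclusive means probably only some replicates passing the limit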;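 further: agonist challenge used bursicon conditioned medium at about half maximal strength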
Yeast UUG start = alters start codon recognition fidelity in yeast; AID 602363; activity score, % at 18.7 µM; 350,000 tested, 0.13% active; S. cerevisiae UUG-firefly luciferase reporter, luminescence/redox ratio;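 active means replicate mean at a twofold rise or more, about +100% in these data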;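 further: firefly luciferase made from a UUG start codon reports start codon fidelity; reporter light over untreated wells divided by growth signal over untreated wells; some hits fall short of that in this replicate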
PglD DTNB = blocks C. jejuni PglD acetyltransferase activity | purified PglD enzyme, DTNB colorimetric CoA detection | inhibition, % at 12.5 µM | 0.098% of 360,000 active; in the data active means inhibition above about 16%, passing the limit was not always enough; inconclusive means no clear call, values can overlap the other calls
miR122 inh = blocks miR-122 activity in Huh7 sensor cells; Huh7 miR-122 Renilla luciferase sensor, 48 h; neutral wells = 0, positive control = 100; activation (reporter increase), % at 12.5 µM; 0.3% of 340,000 active; AID 602342;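 active means mean replicate activation score at least 90 and every replicate individually at or above 90; inconclusive means only one of the two criteria met; inactive means neither criterion met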;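 further: higher luciferase means less miR-122 activity so hits act as miR-122 inhibitors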
EWS-Fli inh = inhibitors of EWS/Fli oncoprotein transcriptional activity; A673 NR0B1-luciferase reporter, viability-normalised; inhibition, % at 12.6 µM; 0.67% of 350,000 active;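 active means mean inhibition of at least 50% after viability correction, with every replicate also passing that limit; inconclusive means mean reaches 50% but only one of two replicates passes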;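 further: firefly luciferase signal divided by Alamar Blue viability fluorescence both relative to DMSO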
F508del corr = CFTR F508del correction in bronchial cells. CFBE cells, YFP halide quenching; stimulated with forskolin plus potentiator P3; % fluorescence drop versus neutral controls. activity (quench increase), % at 7.58 µM. 0.36% of 350,000 active;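 active means mean added fluorescence quench of at least 8% versus neutral control, with both replicates also reaching 8%; inconclusive means only one of the mean or replicate conditions met; inactive means mean below 8% and not both replicates reaching 8%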;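 further: cells transiently co-express mutant CFTR-F508del with the halide-sensitive YFP; corrector assay measuring rescue of mutant channel to the surface after 24 h compound exposure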
Hits are given with their value; - = inactive; ? = inconclusive; . = no result given; [ ] = remark or other dose.

SMILES | LGR2 inh | Yeast UUG start | PglD DTNB | miR122 inh | EWS-Fli inh | F508del corr
CCNC(=O)C[C@@H]1CC[C@H]2[C@@H](COC[C@H](O)CN2C(=O)c2cccnc2)O1 | - | - | - | - | - | -
CC(C)NC(=O)N(C)C[C@@H]1OCCCC[C@H](C)Oc2ccc(NC(=O)Nc3ccccc3)cc2C(=O)N([C@@H](C)CO)C[C@H]1C | - | . | - | - | . | -
O=C1/C(=C/c2cccnc2)CCC/C1=C\c1cccnc1 | 90 | . | . | . | 54 | .
O=C1/C(=C/c2cccnc2)CC/C1=C\c1cccnc1 | - | - | - | - | - | -
CCC1C/C(=C\c2cccnc2)C(=O)/C(=C/c2cccnc2)C1 (configuration not stated) | . | . | . | . | 54 | .
O=C(C(=Cc1ccc(F)cc1)C(=O)c1ccccc1)c1ccccc1 | - | . | . | . | - | -
Cc1c(C(=O)OCC(C)C)[nH]c2c1C(=O)CC(c1cccs1)C2 (configuration not stated) | . | - | - | - | . | .
COCCOC(=O)c1[nH]c2c(c1C)C(=O)CC(c1cccs1)C2 (configuration not stated) | - | . | . | . | 61 | 13
COC(=O)c1[nH]c2c(c1C)C(=O)CC(c1cccc(OC)c1)C2 (configuration not stated) | - | - | - | . | 60 | 8.4
CCOCCOC(=O)c1[nH]c2c(c1C)C(=O)CC(c1cccs1)C2 (configuration not stated) | - | - | - | - | 53 | -
CCOCCOC(=O)c1[nH]c2c(c1C)C(=O)CC(c1ccccc1)C2 (configuration not stated) | - | - | - | - | ? | -
CCOC(=O)c1[nH]c2c(c1C)C(=O)CC(c1ccc(F)cc1)C2 (configuration not stated) | - | - | - | - | 63 | -
CCCOC(=O)c1[nH]c2c(c1C)C(=O)CC(c1ccc(OC)c(OC)c1)C2 (configuration not stated) | - | . | . | . | - | -
CCCCCOC(=O)c1[nH]c2c(c1C)C(=O)CC(c1ccco1)C2 (configuration not stated) | . | - | - | 121 | . | .
CCOc1ccc(OCC)c(S(=O)(=O)N2CCCCC2)c1 | . | - | - | - | . | .
CCOC(=O)N1CCN(S(=O)(=O)c2cc(OCC)ccc2OCC)CC1 | . | - | - | 143 | . | .
CC(=O)N(C)C[C@@H]1Oc2cc(C#Cc3ccc(F)cc3)ccc2S(=O)(=O)N([C@H](C)CO)C[C@@H]1C | - | . | - | - | - | 8.0
C[C@@H]1CN([C@@H](C)CO)S(=O)(=O)c2ccc(C#Cc3ccc(F)cc3)cc2O[C@H]1CN(C)C(=O)CN(C)C | - | - | - | - | 59 | -
C[C@@H]1CN([C@@H](C)CO)S(=O)(=O)c2ccc(C#Cc3ccccc3F)cc2O[C@@H]1CN(C)C(=O)c1ccc2c(c1)OCO2 | - | - | - | - | - | -
C[C@H](CO)N1C[C@H](C)[C@@H](CN(C)S(C)(=O)=O)Oc2cc(C#Cc3ccccc3)ccc2S1(=O)=O | - | - | - | 130[16.7 µM] | - | -
C[C@H]1CN([C@@H](C)CO)S(=O)(=O)c2ccc(C#Cc3ccccc3F)cc2O[C@H]1CN(C)C(=O)c1ccc2c(c1)OCO2 | - | - | - | - | - | 9.6
COC(=O)c1sccc1NC(=O)c1cccc(F)c1 | - | - | - | - | - | -
O=C(CN1CCCC1)NC(=O)NC1CCCC1 | - | . | . | . | - | -
O=C1C(=O)N(Cc2ccccc2)C(c2cccc(O)c2)/C1=C(\O)c1ccc2c(c1)OCCO2 (configuration not stated) | - | - | - | - | - | -
CCOCCCn1cc(C(=O)c2cc(Br)ccc2O)cc(C#N)c1=O | - | . | . | . | - | -
SMILES | LGR2 inh | Yeast UUG start | PglD DTNB | miR122 inh | EWS-Fli inh | F508del corr
O=C(Cc1ccc(Cl)cc1)OCC(=O)c1ccc[nH]1 | - | - | - | - | - | 23
CCn1cc(S(=O)(=O)CC(=O)Nc2ccc(C)cc2)c2ccccc21 | . | - | - | 98 | . | .
COC(=O)c1ccc(C(=O)NC2CCCc3c2cnn3-c2ccc(C)c(C)c2)cc1 (configuration not stated) | - | - | - | - | . | 10
Cc1cc(C(=O)NC2CCCc3c2cnn3-c2ccc(C)c(C)c2)nc(C)n1 (configuration not stated) | - | - | - | - | . | -
COC(=O)c1ccc(C(=O)NC2CCCc3c2cnn3-c2cc(F)cc(F)c2)nc1 (configuration not stated) | - | - | - | . | 53 | 9.6
COc1cccc(C2=NOC(C(=O)NCc3ccccc3)C2)c1 (configuration not stated) | - | - | - | - | . | .
COc1ccc(C2=NOC(C(=O)NCc3ccccc3)C2)cc1 (configuration not stated) | - | - | - | - | - | 11
C[C@H]1C[C@H]2[C@@H]3CCC4=CC(=O)C=C[C@]4(C)[C@@]3(F)[C@@H](O)C[C@]2(C)[C@@]1(O)C(=O)CO | - | - | - | - | - | 10
C[C@H]1C[C@H]2[C@@H]3CCC4=CC(=O)C=C[C@]4(C)[C@@]3(Cl)[C@@H](O)C[C@]2(C)[C@@]1(O)C(=O)CO | - | - | - | - | - | -
COc1ccc(CCNC(=O)CCN2C(=O)c3cccc4cccc(c34)C2=O)cc1OC | - | . | . | . | - | -
COc1ccc(CCN2C(=O)c3cccc4c(C(=O)N5CCCCC5)ccc(c34)C2=O)cc1OC | 102 | . | . | . | - | .
CC(C)(C)NC(=O)/C(=C\C=C\c1ccccc1)NC(=O)c1ccc([N+](=O)[O-])cc1 | - | . | . | . | - | -
O=C(/C=C/c1ccccc1Cl)c1ccccc(=O)c1O | - | . | . | . | . | .
O=C(/C=C/c1ccc([N+](=O)[O-])cc1)c1ccccc(=O)c1O | - | . | . | - | 61 | -
Cc1cc(CNC(=O)CC2C(=O)NCCN2Cc2ccccc2C(F)(F)F)nn1C (configuration not stated) | - | - | - | - | - | -
O=[N+]([O-])c1ccc(N=Nc2c(Cl)cc(O)cc2Cl)cc1 | - | - | - | - | - | 10
CO[C@@H]1CN(C)C(=O)c2cc(NS(C)(=O)=O)ccc2OC[C@H](C)N(C(=O)c2ccc3c(c2)OCO3)C[C@H]1C | - | - | - | . | - | -
COc1ccc(C(C)=O)cc1CS(=O)(=O)CC(=O)NCCc1c[nH]c2ccccc12 | - | - | - | - | - | 12
Cc1cc(C)c(C)c(S(=O)(=O)NCc2ccncc2)c1C | - | . | . | 122 | - | -
Cc1ccc(S(=O)(=O)NCc2ccncc2)cc1C | - | . | . | - | - | -
Fc1ccc(NC(=S)N2N=CCC2c2ccccc2)cc1 (configuration not stated) | . | - | - | - | . | .
CCCCN1C=CC(=C2C(=O)c3ccccc3C2=O)C=C1 | . | - | - | - | 80 | -
COc1ccccc1C(c1c(N)n(C)c(=O)n(C)c1=O)C(C)[N+](=O)[O-] (configuration not stated) | - | - | - | - | - | -
